ChEMBL document CHEMBL1124014, “Synthesis of (aryloxy)alkylamines. 2. Novel imidazo-fused heterocycles with calcium channel blocking and local anesthetic activity” (J Med Chem, 1988)

Sequences of proteins named here, by UniProt entry; tags and fusion partners are left off.
UniProt P15381, whole entry: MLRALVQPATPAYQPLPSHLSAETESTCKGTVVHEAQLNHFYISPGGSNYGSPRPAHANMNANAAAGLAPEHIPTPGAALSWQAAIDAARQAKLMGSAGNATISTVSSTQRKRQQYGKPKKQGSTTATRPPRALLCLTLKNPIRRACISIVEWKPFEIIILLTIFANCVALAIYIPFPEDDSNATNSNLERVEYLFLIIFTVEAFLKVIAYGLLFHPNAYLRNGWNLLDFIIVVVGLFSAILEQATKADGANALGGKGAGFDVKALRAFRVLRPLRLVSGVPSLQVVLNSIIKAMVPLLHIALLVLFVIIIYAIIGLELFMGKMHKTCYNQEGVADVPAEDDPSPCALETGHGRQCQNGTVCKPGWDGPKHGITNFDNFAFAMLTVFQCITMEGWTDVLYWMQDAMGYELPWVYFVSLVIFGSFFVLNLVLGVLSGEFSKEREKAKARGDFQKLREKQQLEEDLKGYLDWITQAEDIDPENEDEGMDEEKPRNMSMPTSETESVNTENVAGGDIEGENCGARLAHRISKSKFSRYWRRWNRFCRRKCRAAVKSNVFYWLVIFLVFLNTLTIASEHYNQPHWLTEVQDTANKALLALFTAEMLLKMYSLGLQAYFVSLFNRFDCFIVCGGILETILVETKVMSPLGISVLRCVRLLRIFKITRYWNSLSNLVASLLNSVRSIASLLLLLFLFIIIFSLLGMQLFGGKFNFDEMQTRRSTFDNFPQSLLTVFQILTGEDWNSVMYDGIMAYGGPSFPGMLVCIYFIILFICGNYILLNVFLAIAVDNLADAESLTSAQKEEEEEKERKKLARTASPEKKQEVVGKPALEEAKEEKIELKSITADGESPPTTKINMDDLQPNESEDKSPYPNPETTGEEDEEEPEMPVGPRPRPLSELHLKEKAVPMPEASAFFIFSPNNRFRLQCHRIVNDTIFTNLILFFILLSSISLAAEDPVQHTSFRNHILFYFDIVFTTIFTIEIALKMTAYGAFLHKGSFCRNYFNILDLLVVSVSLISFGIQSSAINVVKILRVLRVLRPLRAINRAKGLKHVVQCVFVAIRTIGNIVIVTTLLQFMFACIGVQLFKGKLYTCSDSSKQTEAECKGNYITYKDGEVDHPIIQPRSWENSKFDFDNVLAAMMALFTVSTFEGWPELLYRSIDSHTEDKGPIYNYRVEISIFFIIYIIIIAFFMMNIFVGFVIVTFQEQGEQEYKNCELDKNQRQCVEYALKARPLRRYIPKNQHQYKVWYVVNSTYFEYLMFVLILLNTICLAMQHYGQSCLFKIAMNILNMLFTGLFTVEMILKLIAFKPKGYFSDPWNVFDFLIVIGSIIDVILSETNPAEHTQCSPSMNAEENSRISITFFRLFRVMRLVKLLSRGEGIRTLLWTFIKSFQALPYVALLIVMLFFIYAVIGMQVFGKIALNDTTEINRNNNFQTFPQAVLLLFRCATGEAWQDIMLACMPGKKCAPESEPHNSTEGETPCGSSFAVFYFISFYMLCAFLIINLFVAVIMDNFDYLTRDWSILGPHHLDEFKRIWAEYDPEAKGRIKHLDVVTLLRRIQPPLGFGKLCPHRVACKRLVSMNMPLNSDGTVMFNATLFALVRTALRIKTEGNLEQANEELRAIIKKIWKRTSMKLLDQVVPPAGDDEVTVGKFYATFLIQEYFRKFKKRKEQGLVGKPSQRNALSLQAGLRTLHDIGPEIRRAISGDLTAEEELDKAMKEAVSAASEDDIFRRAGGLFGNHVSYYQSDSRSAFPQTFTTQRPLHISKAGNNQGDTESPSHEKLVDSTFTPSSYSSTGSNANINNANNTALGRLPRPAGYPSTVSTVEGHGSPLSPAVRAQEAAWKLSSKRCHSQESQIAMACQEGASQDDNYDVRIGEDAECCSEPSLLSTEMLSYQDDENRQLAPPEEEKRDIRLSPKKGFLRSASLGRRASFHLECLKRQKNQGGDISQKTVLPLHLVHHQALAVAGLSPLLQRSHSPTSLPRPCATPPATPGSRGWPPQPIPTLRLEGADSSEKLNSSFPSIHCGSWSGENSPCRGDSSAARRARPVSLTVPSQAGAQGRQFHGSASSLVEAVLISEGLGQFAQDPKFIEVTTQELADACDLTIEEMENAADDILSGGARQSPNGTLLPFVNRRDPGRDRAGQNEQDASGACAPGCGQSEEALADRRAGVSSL

Target: Voltage-dependent L-type calcium channel subunit alpha-1C (Oryctolagus cuniculus, UniProt P15381)
Experiment: Inhibition of [3H]nitrendipine binding to calcium channels in Rabbit cardiac muscle.
Assay type: tissue-based, Muscle tissue

- IC50: 1000 nM
Structure (SMILES): COc1ccc(CCN(C)CCCC(C#N)(c2ccc(OC)c(OC)c2)C(C)C)cc1OC (stereo unspecified)
